Measured values reported in ChEMBL document CHEMBL1137222, “Architecture of P2Y nucleotide receptors: structural comparison based on sequence analysis, mutagenesis, and homology modeling” (J Med Chem, 2004).

The chains behind the UniProt entries cited, without tags or fusion partners.
UniProt P47900, whole entry T222A: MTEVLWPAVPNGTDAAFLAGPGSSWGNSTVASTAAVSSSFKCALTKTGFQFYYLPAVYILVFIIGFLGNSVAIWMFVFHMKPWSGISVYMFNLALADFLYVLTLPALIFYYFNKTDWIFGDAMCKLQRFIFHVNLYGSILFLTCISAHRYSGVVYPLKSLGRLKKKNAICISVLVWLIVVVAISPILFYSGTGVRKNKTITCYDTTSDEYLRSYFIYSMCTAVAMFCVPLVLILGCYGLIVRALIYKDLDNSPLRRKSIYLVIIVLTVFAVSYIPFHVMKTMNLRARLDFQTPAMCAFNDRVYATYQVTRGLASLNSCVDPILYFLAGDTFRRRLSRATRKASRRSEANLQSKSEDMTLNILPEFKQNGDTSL
UniProt P47900, whole entry H132A: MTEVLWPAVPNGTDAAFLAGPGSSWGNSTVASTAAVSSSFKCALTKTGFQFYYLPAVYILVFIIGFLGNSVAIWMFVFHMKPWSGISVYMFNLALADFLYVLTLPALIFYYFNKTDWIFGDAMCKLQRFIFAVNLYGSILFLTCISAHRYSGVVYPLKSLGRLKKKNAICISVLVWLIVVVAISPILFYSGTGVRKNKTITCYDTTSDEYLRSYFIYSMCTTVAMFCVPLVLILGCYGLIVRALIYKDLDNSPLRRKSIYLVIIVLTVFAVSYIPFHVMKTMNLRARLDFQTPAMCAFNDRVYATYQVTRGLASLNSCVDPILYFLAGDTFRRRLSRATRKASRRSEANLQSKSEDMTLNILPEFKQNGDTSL
UniProt P47900, whole entry S314T: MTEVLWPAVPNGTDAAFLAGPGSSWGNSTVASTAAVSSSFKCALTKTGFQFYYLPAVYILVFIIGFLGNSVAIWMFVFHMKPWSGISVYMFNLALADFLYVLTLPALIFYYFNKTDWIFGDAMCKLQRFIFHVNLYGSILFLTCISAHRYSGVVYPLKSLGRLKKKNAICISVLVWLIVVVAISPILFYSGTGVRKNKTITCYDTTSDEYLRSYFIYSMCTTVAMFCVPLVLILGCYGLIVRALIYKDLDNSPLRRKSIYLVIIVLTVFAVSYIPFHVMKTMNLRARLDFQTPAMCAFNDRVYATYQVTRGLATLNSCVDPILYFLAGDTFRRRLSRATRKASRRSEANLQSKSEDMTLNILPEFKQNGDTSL
UniProt P47900, whole entry Y306A: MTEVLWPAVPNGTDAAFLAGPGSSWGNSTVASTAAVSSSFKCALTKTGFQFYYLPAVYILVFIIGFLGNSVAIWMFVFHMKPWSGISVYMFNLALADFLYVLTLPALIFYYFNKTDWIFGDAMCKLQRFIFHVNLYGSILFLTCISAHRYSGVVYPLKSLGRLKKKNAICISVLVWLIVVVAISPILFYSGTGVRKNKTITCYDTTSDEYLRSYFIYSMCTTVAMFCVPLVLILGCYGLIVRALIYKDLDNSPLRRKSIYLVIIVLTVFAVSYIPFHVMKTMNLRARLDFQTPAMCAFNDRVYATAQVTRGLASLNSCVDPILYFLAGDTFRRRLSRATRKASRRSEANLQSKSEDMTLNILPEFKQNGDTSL
UniProt P47900, whole entry R195A: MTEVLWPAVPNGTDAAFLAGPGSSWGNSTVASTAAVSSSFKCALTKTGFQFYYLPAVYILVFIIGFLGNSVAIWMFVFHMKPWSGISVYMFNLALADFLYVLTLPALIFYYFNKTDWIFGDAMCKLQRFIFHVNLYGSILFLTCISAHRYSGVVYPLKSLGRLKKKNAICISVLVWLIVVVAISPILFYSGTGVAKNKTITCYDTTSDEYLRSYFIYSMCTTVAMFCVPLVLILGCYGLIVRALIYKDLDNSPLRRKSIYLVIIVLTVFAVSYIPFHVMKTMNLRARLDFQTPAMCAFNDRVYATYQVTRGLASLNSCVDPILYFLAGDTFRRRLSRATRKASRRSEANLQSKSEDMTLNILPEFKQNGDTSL
UniProt P47900, whole entry R310A: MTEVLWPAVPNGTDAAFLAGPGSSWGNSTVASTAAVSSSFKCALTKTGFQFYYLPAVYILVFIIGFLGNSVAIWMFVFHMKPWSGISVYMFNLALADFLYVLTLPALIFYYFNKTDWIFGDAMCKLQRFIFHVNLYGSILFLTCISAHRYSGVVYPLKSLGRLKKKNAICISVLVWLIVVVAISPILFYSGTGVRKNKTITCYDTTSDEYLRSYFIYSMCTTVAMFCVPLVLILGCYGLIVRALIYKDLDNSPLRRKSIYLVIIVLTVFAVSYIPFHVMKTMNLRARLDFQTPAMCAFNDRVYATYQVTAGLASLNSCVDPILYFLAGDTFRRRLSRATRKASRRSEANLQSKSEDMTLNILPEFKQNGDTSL
UniProt P47900, whole entry Y203A: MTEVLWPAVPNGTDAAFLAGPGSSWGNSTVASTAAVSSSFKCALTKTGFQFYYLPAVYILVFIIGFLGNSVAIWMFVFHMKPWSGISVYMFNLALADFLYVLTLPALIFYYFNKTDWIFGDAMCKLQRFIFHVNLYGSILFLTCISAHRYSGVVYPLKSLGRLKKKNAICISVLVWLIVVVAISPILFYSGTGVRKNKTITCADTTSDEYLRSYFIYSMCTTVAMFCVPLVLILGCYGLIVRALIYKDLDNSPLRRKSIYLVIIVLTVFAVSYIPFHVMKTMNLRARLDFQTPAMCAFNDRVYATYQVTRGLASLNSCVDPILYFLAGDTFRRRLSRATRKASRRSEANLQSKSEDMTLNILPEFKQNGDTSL
UniProt P47900, whole entry D289A: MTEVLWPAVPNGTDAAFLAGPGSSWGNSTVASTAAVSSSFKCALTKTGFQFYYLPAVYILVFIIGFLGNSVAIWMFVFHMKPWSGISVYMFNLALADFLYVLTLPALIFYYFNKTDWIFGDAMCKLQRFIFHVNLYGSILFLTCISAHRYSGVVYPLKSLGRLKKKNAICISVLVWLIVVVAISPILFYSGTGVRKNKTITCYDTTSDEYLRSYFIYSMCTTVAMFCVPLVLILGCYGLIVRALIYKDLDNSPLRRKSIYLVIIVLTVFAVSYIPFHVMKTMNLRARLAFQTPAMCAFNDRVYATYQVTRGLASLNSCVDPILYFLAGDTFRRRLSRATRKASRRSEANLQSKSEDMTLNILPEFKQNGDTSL
UniProt P47900, whole entry R310K: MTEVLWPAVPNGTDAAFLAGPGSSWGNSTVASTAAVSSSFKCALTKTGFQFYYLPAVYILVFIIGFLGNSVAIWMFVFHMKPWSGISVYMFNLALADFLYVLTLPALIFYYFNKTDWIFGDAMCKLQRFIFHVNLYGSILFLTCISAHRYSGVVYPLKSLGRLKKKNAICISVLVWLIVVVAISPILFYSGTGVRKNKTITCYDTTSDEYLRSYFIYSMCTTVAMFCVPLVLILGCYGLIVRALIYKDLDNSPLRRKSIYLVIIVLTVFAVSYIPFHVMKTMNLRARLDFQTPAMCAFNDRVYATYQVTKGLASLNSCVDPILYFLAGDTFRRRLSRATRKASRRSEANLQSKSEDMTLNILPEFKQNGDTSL
UniProt P47900, whole entry K125A: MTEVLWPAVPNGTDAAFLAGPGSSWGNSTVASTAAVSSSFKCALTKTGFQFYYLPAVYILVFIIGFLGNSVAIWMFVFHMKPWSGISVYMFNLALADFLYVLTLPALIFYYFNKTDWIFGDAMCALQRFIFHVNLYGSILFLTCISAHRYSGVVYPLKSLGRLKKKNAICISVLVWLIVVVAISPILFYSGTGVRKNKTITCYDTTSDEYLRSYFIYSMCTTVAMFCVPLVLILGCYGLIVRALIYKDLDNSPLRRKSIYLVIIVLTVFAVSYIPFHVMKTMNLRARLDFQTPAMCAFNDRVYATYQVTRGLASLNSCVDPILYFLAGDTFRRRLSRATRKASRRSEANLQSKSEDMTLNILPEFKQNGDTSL
UniProt P47900, whole entry D204A: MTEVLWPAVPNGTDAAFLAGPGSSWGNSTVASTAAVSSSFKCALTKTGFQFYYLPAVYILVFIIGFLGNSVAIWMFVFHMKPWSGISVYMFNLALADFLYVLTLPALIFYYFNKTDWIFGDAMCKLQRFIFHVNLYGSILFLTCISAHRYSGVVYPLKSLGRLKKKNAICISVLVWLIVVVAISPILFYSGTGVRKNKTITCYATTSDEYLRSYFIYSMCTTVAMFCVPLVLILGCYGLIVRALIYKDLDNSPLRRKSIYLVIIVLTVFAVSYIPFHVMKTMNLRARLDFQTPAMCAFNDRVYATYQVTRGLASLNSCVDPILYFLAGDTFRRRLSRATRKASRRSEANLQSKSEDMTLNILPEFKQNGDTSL
UniProt P47900, whole entry Y273F: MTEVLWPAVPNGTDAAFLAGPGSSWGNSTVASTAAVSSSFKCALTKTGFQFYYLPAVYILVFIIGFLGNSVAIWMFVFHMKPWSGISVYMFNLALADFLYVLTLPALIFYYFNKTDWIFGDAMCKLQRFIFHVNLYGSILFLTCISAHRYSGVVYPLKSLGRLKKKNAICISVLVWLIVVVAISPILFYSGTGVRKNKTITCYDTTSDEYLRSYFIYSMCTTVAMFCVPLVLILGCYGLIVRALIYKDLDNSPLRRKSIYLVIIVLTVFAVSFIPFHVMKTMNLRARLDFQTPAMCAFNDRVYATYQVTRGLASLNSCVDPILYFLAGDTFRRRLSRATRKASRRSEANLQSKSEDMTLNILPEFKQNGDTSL
UniProt P47900, whole entry Y273A: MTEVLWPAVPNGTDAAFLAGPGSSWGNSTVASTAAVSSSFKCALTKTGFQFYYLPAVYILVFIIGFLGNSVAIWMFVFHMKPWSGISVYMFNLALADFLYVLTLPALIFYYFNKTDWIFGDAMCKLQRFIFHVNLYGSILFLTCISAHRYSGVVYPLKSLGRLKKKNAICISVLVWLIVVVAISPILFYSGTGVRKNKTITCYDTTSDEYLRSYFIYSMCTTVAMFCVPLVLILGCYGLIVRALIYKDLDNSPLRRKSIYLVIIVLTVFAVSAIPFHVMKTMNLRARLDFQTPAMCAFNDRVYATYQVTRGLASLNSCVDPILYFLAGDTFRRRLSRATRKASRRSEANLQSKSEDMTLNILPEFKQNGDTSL
UniProt P47900, whole entry R285A: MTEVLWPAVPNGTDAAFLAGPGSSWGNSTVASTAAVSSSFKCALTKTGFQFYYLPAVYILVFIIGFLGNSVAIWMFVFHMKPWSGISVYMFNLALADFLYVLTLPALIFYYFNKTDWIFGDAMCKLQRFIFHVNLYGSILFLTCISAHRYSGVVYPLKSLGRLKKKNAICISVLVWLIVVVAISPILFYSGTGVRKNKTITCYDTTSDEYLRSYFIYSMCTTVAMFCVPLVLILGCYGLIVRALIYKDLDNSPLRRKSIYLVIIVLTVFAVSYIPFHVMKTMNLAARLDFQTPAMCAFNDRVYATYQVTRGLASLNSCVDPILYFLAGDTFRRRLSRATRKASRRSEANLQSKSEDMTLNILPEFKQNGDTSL
UniProt P47900, whole entry R287E: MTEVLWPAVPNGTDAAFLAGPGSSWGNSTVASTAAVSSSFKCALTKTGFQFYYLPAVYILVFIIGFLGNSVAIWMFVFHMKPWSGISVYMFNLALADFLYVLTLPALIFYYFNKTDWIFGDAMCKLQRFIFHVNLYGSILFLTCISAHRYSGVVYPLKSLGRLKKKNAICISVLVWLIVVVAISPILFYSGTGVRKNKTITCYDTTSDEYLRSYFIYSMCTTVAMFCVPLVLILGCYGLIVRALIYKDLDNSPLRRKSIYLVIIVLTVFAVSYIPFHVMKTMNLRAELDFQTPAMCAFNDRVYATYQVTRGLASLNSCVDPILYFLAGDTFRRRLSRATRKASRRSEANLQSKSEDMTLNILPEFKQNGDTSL
UniProt P47900, whole entry R212A: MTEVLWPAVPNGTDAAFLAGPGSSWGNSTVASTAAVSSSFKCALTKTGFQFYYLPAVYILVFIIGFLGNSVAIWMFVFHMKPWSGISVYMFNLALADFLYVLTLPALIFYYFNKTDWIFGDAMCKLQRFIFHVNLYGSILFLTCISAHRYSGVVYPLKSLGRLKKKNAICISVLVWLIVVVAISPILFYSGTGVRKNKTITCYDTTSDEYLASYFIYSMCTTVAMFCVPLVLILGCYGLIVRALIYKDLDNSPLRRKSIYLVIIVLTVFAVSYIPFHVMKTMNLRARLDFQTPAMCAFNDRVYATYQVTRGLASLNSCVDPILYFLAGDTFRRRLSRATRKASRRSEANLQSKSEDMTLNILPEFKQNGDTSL
UniProt P47900, whole entry C124A: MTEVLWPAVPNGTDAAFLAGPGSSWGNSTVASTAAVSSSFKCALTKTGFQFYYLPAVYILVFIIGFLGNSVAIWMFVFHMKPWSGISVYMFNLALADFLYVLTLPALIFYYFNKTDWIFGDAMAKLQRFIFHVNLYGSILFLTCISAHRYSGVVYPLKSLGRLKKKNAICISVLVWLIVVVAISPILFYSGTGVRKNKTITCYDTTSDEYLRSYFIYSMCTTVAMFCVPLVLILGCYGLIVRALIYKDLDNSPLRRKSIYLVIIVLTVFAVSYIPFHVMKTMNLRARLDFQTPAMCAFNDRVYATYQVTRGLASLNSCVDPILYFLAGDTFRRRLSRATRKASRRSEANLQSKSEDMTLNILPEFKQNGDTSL

What was measured:
Type in all cases: cell-based
[1] = biological target: P2Y purinoceptor 1 (Homo sapiens, UniProt P47900, T222A); experiment: Effective concentration required for the activation of human T222A mutant strain P2Y1 receptors expressed in COS-7 cells for the accumulation of inositol phosphate
[2] = biological target: P2Y purinoceptor 1 (Homo sapiens, UniProt P47900, H132A); experiment: Effective concentration required for the activation of human H132A mutant strain P2Y1 receptors expressed in COS-7 cells for the accumulation of inositol phosphate
[3] = biological target: P2Y purinoceptor 1 (Homo sapiens, UniProt P47900, S314T); experiment: Effective concentration required for the activation of human S314T mutant strain P2Y1 receptors expressed in COS-7 cells for the accumulation of inositol phosphate
[4] = biological target: T1, P2Y purinoceptor 1 (Homo sapiens, UniProt P47900); experiment: Effective concentration to activate wild-type P2Y1 receptor expressed in COS-7 cells for the accumulation of inositol phosphate
[5] = biological target: P2Y purinoceptor 1 (Homo sapiens, UniProt P47900, Y306A); experiment: Inhibition concentration required against human Y306A mutant strain P2Y1 receptor expressed in COS-7 cells is determined using [3H]MRS2279 as radioligand
[6] = biological target: P2Y purinoceptor 1 (Homo sapiens, UniProt P47900, R195A); experiment: Effective concentration required for the activation of human R195A mutant strain P2Y1 receptors expressed in COS-7 cells for the accumulation of inositol phosphate
[7] = biological target: P2Y purinoceptor 1 (Homo sapiens, UniProt P47900, R310A); experiment: Effective concentration required for the activation of human R310A mutant strain P2Y1 receptors expressed in COS-7 cells for the accumulation of inositol phosphate
[8] = biological target: P2Y purinoceptor 1 (Homo sapiens, UniProt P47900, Y203A); experiment: Effective concentration to activate human Y203A (EL2) mutant strain P2Y1 receptor expressed in COS-7 cells for the accumulation of inositol phosphate
[9] = biological target: P2Y purinoceptor 1 (Homo sapiens, UniProt P47900, D289A); experiment: Effective concentration required for the activation of human D289A mutant strain P2Y1 receptors expressed in COS-7 cells for the accumulation of inositol phosphate
[10] = biological target: P2Y purinoceptor 1 (Homo sapiens, UniProt P47900, R310K); experiment: Effective concentration required for the activation of human R310K mutant strain P2Y1 receptors expressed in COS-7 cells for the accumulation of inositol phosphate
[11] = biological target: P2Y purinoceptor 1 (Homo sapiens, UniProt P47900, K125A); experiment: Effective concentration required for the activation of human K125A mutant strain P2Y1 receptors expressed in COS-7 cells for the accumulation of inositol phosphate
[12] = biological target: P2Y purinoceptor 1 (Homo sapiens, UniProt P47900, D204A); experiment: Effective concentration required for the activation of human D204A mutant strain P2Y1 receptors expressed in COS-7 cells for the accumulation of inositol phosphate
[13] = biological target: T1, P2Y purinoceptor 1; experiment: Effective concentration required for the activation of wild-type P2Y1 receptors expressed in COS-7 cells for the accumulation of inositol phosphate is determined in separate experiment
[14] = biological target: P2Y purinoceptor 1 (Homo sapiens, UniProt P47900, Y273F); experiment: Effective concentration to activate human Y273F mutant strain P2Y1 receptor expressed in COS-7 cells for the accumulation of inositol phosphate
[15] = biological target: P2Y purinoceptor 1 (Homo sapiens, UniProt P47900, Y273A); experiment: Inhibition concentration required against human Y273A mutant strain P2Y1 receptor expressed in COS-7 cells is determined using [3H]-MRS2279 as radioligand
[16] = biological target: P2Y purinoceptor 1 (Homo sapiens, UniProt P47900, R285A); experiment: Effective concentration required for the activation of human R285A mutant strain P2Y1 receptors expressed in COS-7 cells for the accumulation of inositol phosphate
[17] = biological target: P2Y purinoceptor 1 (Homo sapiens, UniProt P47900, R287E); experiment: Effective concentration required for the activation of human R287E mutant strain P2Y1 receptors expressed in COS-7 cells for the accumulation of inositol phosphate
[18] = biological target: P2Y purinoceptor 1 (Homo sapiens, UniProt P47900, R212A); experiment: Effective concentration required for the activation of human R212A mutant strain P2Y1 receptors expressed in COS-7 cells for the accumulation of inositol phosphate
[19] = biological target: P2Y purinoceptor 1 (Homo sapiens, UniProt P47900, C124A); experiment: Effective concentration required for the activation of human C124A mutant strain P2Y1 receptors expressed in COS-7 cells for the accumulation of inositol phosphate
[20] = biological target: P2Y purinoceptor 1 (Homo sapiens, UniProt P47900, E209Q); experiment: Effective concentration required for the activation of human E209Q mutant strain P2Y1 receptors expressed in COS-7 cells for the accumulation of inositol phosphate
[21] = biological target: T1, P2Y purinoceptor 1; experiment: Inhibition concentration required against wild type strain P2Y1 receptor expressed in COS-7 cells is determined using [3H]-MRS2279 as radioligand
[22] = biological target: P2Y purinoceptor 1 (Homo sapiens, UniProt P47900, D204E); experiment: Effective concentration required for the activation of human D204E mutant strain P2Y1 receptors expressed in COS-7 cells for the accumulation of inositol phosphate
[23] = biological target: P2Y purinoceptor 1 (Homo sapiens, UniProt P47900, Q307A); experiment: Effective concentration required for the activation of human Q307A mutant strain P2Y1 receptors expressed in COS-7 cells for the accumulation of inositol phosphate
[24] = biological target: P2Y purinoceptor 1 (Homo sapiens, UniProt P47900, R301A); experiment: Effective concentration required for the activation of human R301A mutant strain P2Y1 receptors expressed in COS-7 cells for the accumulation of inositol phosphate
[25] = biological target: P2Y purinoceptor 1 (Homo sapiens, UniProt P47900, D208A); experiment: Effective concentration required for the activation of human D208A mutant strain P2Y1 receptors expressed in COS-7 cells for the accumulation of inositol phosphate
[26] = biological target: T1, P2Y purinoceptor 1; experiment: Effective concentration required for the activation of wild-type P2Y1 receptors expressed in COS-7 cells for the accumulation of inositol phosphate
[27] = biological target: T2, P2Y purinoceptor 1 (Homo sapiens, UniProt P47900, Y203F); experiment: Effective concentration to activate human Y203F mutant strain P2Y1 receptor expressed in COS-7 cells for the accumulation of inositol phosphate
[28] = biological target: T2, P2Y purinoceptor 1; experiment: Inhibition concentration required against human Y203F mutant strain P2Y1 receptor expressed in COS-7 cells is determined using [3H]MRS2279 as radioligand

CSc1nc(N)c2ncn([C@@H]3O[C@H](COP(=O)(O)OP(=O)(O)O)[C@@H](O)[C@H]3O)c2n1 gave an EC50 [1] of 11.2 nM, an EC50 [2] of 15.9 nM and an EC50 [3] of 11.7 nM. It also gave an EC50 [4] of 3 nM, an IC50 [5] of 150 nM and an EC50 [6] of 4.7 nM. For the same compound, the EC50 [7] was > 100000 nM, the EC50 [8] was > 10000 nM and the EC50 [9] was 3.9 nM. The EC50 [10] was 418 nM, the EC50 [11] was 5.9 nM and the EC50 [12] was 66.5 nM. The EC50 [13] was 2.2 nM, the EC50 [14] was 6 nM and the IC50 [15] was 22 nM. The EC50 [16] was 9.2 nM, the EC50 [17] was > 100000 nM and the EC50 [18] was 7.8 nM. The EC50 [19] was > 100000 nM, the EC50 [20] was 8.6 nM and the IC50 [21] was 24 nM. It also gave an EC50 [22] of 145 nM, an EC50 [23] of 455 nM and an EC50 [24] of 2.6 nM. It also gave an EC50 [25] of 3.6 nM, an EC50 [26] of 1.27 nM and an EC50 [27] of 16 nM. The IC50 [28] was 260 nM.
